# Laboratory results as given in patent US20090264384A1, “INDOLE, BENZIMIDAZOLE, AND BENZOLACTAM BORONIC ACID COMPOUNDS, ANALOGS THEREOF AND METHODS OF USE THEREOF” (Nuada, Inc., priority 2004, published 2009).
# Biological target: T1, ETB(h) (Homo sapiens, UniProt P24530)
# T1 construct: expressed in transfected cells; host or cells: CHO cells
# T1 sequence (P24530 27-442): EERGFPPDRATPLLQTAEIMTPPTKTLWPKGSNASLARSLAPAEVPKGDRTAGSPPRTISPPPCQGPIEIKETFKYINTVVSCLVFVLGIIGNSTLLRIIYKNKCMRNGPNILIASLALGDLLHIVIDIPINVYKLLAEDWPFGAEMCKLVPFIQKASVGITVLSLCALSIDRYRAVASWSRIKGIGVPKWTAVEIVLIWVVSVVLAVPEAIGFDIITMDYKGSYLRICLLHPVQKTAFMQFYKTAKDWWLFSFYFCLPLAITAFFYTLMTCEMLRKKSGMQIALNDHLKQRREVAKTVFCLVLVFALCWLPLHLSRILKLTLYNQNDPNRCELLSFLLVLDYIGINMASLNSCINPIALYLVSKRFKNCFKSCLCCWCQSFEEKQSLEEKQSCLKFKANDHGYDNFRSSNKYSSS
# Test: ETB(h) binding assay
substance,measurement,value
endothelin-3,IC50,230 pM
same,Ki,200 pM
